According to US20250221989A1, “PHARMACEUTICAL COMPOSITION, USE THEREOF, AND METHOD FOR TREATING CANCER” (Genfleet Therapeutics (Shanghai) Inc., priority 2022, published 2025):
Marks after values point to notes of the source that are not given here.

Tested on: NCI-H2122 human non-small cell lung cancer model
Assay: In vivo anti-tumor evaluation in NCI-H2122 human non-small cell lung cancer model
Design: species or system BALB/c nude mice
Conditions: for Tumor volume After grafting Day 5: baseline at grouping, n=8
Procedure: During the study, the health of the animals was observed daily. If there was a 10% weight loss in the animals, the administration dose was halved; if there was a 15% weight loss, the […] until a normal body weight was restored; or if the tumor volume in the animals exceeded 2,000 mm^3, the mouse was euthanized immediately. If the health condition met the following criteria, euthanasia was performed by the veterinarian:
BALB/c nude mice, aged 6-8 weeks, female, purchased from Beijing Vital River Laboratory Animal Technology Co., Ltd., Certificate No. 20170011008676, and housed in an SPF-grade environment.
Preparation: the compound of the formula (II) was prepared in a vehicle of 5% DMSO+10% Solutol HS 15+85% (6% HP-β-CD); cetuximab was prepared in a 0.9% sodium chloride injection.
NCI-H2122 cells were cultured in an RPMI 1640 medium containing 10% of FBS and 1% of penicillin-streptomycin in an incubator at 37° C. and 5% CO2. The cells were digested with 0.25% trypsin-EDTA for passaging as per conventional practice. When the cells were in the logarithmic growth phase and the confluence reached […], the cells were collected and counted. The cells were collected and adjusted to a final concentration of 2.0×10^6 cells/mL. Mice were grafted subcutaneously at the right dorsal region in a volume of 0.15 mL/3×10^5 cells/mouse. When the tumors grew to an average size of about 242 mm^3 (D5 after grafting), 32 tumor-bearing mice were selected, randomized into 4 groups of 8 mice each as per the tumor volume and the body weight, and treated according to the administration regimen shown in Table 1. The dose in mice was 10 mL/kg. The mice were weighed on an electronic balance twice weekly and the tumor volume was measured with a vernier caliper twice weekly. The study was ended on D17 after grafting, and the mice were euthanized after tumor volume measurement.
Tumor volume (TV)=(L×W^2)/2, where L denotes the long diameter of the tumor, and W is the short diameter of the tumor.
TGI (%)=[1−(avTi-0/avCi-0)]×100%, where avTi-0 denotes the average tumor volume of the treatment group on a specific day minus the average tumor volume of the treatment group at the baseline; avCi-0 denotes the average tumor volume of the vehicle control group on a specific day minus the average tumor volume of the vehicle control group at the baseline.
TWI=(1−TWtreatment/Dx/TWcontrol/Dx)×100%, where TWcontrol denotes the average tumor weight (g) of the control group, and TWtreatment denotes the average tumor weight (g) of the treatment group.
RCBW (%)=(BWi−BW0)/BW0×100%, where BWi is the body weight of a mouse on a specific day and BW0 is the body weight of the mouse at the baseline.
All experimental data analysis and graphing were performed using GraphPad Prism software (GraphPad Software). Tumor volumes and the body weights of the animals in all groups were statistically compared using two-way ANOVA, Dunnett's multiple comparisons test. Tumor weights of the groups at the endpoint were statistically compared using one-way ANOVA, Dunnett's multiple comparisons test. P<0.05 denotes a statistically significant difference. The tumor volume and weight and body weight of animals are expressed by mean±standard error (SEM).

[1] = mean ± SEM, compound of formula (II) 10 mpk p.o. q.d., cetuximab 1 mpk i.p. biw
[2] = Day 17, compound of formula (II) 10 mpk p.o. q.d., cetuximab 1 mpk i.p. biw
[3] = after 12 days treatment, mean ± SEM, compound of formula (II) 10 mpk p.o. q.d., cetuximab 1 mpk i.p. biw

| Compound | Tumor volume After grafting Day 5 [1] | TGI [2] | TWI [2] | RCBW (relative change of body weight) (Day 17 vs baseline, mean ± SEM, compound of formula (II) 10 mpk p.o. q.d., cetuximab 1 mpk i.p. biw) | Body weight After grafting Day 17 [3] | Tumor volume After grafting Day17 [3] | Body weight After grafting Day 5 (baseline, mean ± SEM) | Tumor weight After grafting Day 17 (endpoint, mean ± SEM, compound of formula (II) 10 mpk p.o. q.d., cetuximab 1 mpk i.p. biw) |
| --- | --- | --- | --- | --- | --- | --- | --- | --- |
| C=CC(=O)N1CCN2c3c(c(=O)n(-c4c(C)ccnc4C(C)C)c4nc(-c5c(O)cccc5F)c(Cl)cc34)N(C)C(=O)[C@H]2C1 [Compound of formula (II), (4aR,8R)-3-acryloyl-11-chloro-10-(2-fluoro-6-hydroxyphenyl)-8-(2-isopropyl-4-methylpyridin-3-yl)-6-methyl-2,3,4,4a,6,8-hexahydro-1H-pyrazino[1′,2′: 4,5] pyrazino[2,3-c][1,8]naphthyridine-5,7-dione] | 242.93 ± 11.14 mm^3 | – | – | – | – | – | – | – |
| Cetuximab | 242.79 ± 10.09 mm^3 | 50.11% | 13.24% | −6.46 ± 1.28 % | 19.74 ± 0.25 g | 692.74 ± 62.50*** mm^3 | 21.11 ± 0.24 g | 0.52 ± 0.05 g |
